Counter-ions that a name gives are not always drawn.

This series can be described thus: Solubility in water at 25° C. over time, with pH of filtered solution. The conditions noted are these: for Aqueous Solubility: Table 13, 25° C.

Molecule `COc1ccccc1OCCNCC(O)COc1cccc2[nH]c3ccccc3c12` (centres unmarked) [HBr salt, carvedilol hydrobromide] yielded a pH of solution (Table 13, 1 hr) of 6.1; a pH of solution (Table 13, 4 hr) of 6.3; a pH of solution (Table 13, 24 hr, hydrobromide) of 6.2.

As to `COc1ccccc1OCCNCC(O)COc1cccc2[nH]c3ccccc3c12` (centres unmarked) [Carvedilol], where the note is “Table 13, 24 hr, listed as Free Base”, the pH of solution entry was “(pH = 7.0)”.

“Carvedilol Monocitrate Monohydrate [Carvedilol Mono-Citrate Salt]”: under “Table 11, 48 hr”, the “pH of filtered solution” value was determined as 3.0.

`COc1ccccc1OCCNCC(O)COc1cccc2[nH]c3ccccc3c12.O=P(O)(O)O` (centres unmarked) [Phosphate salt, Carvedilol dihydrogen phosphate]: the “Aqueous Solubility” value (1 hr) is 2.35 mg of Carvedilol free base/mL of solution, the “Aqueous Solubility” value (4 hr) is recorded as 2.25 mg of Carvedilol free base/mL of solution and the “Aqueous Solubility” value (24 hr) was 2.21 mg of Carvedilol free base/mL of solution. Moreover, the pH of solution runs as follows: (Table 13, 1 hr) 3.0; (Table 13, 4 hr) 3.0; (Table 13, 24 hr) 3.0.

(Values after patent US20050169994A1, “Carvedilol free base, salts, anhydrous forms or solvates thereof, corresponding pharmaceutical compositions, controlled release formulations, and treatment or delivery methods” (priority 2003, published 2005).)
